The values that follow come from patent publication US8871728B2, “Non-peptide macrocyclic histone deacetylese (HDAC) inhibitors and methods of making and using thereof” (Georgia Tech Research Corporation, priority 2007, dated 2014).

Amino acid sequences for entries named in this document (tags omitted). A change or cut given only in a name is not applied to a line headed by its entry.
UniProt Q9BY41: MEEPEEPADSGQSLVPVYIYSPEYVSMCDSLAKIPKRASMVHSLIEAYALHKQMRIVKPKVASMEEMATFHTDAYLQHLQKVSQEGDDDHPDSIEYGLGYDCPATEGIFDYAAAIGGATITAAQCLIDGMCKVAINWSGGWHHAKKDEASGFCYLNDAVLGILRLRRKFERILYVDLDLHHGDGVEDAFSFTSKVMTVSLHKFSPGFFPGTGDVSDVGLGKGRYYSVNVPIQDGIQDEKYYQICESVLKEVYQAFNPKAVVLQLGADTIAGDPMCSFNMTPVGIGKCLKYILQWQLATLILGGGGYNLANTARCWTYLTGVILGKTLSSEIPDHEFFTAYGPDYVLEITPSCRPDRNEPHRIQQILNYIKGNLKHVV

The target in this test is HDAC8 (Homo sapiens (Human), UniProt Q9BY41). As to the kind of experiment: SAMDI mass spectrometry HDAC inhibition assay. In kind it is biochemical. The note with it: Table 14; read-out: HDAC 8 (nm).

Take `Cc1ccccc1-c1ccc(Cn2cccc(O)c2=S)cc1` [Compound 149f, 1-(2-Methyl-(1,1′-biphenylmethyl))-3-hydroxyoxypyridine-2-thione]: the IC50 was determined as 3.1 ± 1.65 µM.
